Measurements reported in publication PMC6891315, “Synthesis of Novel Farnesoid X Receptor Agonists and Validation of Their Efficacy in Activating Differentiation of Mouse Bone Marrow-Derived Mesenchymal Stem Cells into Osteoblasts” (Molecules, 2019).

Sequences of proteins named here, by UniProt entry; tags and fusion partners are left off. Residues count along the entry.
UniProt Q96RI1, 262-486 limits assumed: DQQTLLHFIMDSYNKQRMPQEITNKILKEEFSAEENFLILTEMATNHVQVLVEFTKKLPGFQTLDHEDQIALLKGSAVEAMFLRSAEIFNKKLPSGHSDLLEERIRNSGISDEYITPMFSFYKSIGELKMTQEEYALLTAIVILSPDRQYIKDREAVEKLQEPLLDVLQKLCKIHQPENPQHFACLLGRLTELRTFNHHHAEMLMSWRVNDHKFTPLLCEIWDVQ

Target: T1, FXR (Homo sapiens, UniProt Q96RI1)
T1 construct: purchased Thermo Fisher Scientific
Test: LanthaScreen TR-FRET FXR coactivator binding assay
Details: percentage activity with respect to 0.5 μM GW4064

- Maximum Activity: 135.8 ± 42.6%
SMILES: CC(C)c1onc(-c2c(Cl)cccc2Cl)c1COc1ccc(/C=C/c2cccc(C(=O)O)c2)c(Cl)c1 [GW4064]
